Drawing on BindingDB's records for PubMed 7562497 (R. W. Johnson Pharmaceutical Research Institute, 1995), this text covers Ki for one compound.

By UniProt entry, the sequences of proteins in these tests, tags left out.
UniProt P33535, whole entry: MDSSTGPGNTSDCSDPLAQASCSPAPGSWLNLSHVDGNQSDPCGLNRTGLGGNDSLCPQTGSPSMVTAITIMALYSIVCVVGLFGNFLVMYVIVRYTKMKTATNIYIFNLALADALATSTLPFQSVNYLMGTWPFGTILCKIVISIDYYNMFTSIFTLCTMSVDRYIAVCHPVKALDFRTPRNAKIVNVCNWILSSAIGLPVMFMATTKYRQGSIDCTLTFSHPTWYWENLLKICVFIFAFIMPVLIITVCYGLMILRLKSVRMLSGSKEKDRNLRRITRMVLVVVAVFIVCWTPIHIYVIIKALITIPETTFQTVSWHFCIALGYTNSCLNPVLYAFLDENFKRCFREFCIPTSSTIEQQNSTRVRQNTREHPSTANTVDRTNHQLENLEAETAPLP

This experiment has as its target Mu-type opioid receptor (Rattus norvegicus, UniProt P33535).

Take `C[C@@H](NC(=O)[C@@H](N)Cc1ccc(O)cc1)C(=O)NCC(=O)N(C)[C@@H](Cc1ccccc1)C(=O)NCCO` [[tyrosyl-3,5-3H(N)]-D-Ala2-Mephe4-glyol5-enkephalin]: the affinity corresponds to a Ki of 0.365 nM. That is a sub-nanomolar value.

Broadly, the Ki is the equilibrium dissociation constant of an inhibitor or competing ligand from its target. Read a low Ki as tighter binding.
